Patent US20010007152A1, “RECOMBINANT CONSTRUCTS ENCODING T CELL RECEPTORS SPECIFIC FOR HUMAN HLA-RESTRICTED TUMOR ANTIGENS” (priority 1996, published 2001)

Amino acid sequences for entries named in this document (tags omitted).
UniProt P01901, whole entry, looked up, stated change not applied: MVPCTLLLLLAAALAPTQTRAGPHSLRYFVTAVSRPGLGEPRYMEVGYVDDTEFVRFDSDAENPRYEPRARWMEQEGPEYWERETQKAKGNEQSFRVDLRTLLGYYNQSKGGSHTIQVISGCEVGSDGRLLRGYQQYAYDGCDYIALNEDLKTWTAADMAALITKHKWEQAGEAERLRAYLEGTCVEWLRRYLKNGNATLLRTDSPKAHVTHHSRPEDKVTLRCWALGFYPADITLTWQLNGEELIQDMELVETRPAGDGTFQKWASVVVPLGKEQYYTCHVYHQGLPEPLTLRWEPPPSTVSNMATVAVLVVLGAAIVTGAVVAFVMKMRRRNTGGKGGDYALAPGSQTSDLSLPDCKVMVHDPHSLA

Tests used:
NCl.H1355 = assay: Lysis of tumor cells by peptide-specific CTL; assay type: cell-based, human; details: 6 hours
SKMEL-5 = assay: Lysis of tumor cells by peptide-specific CTL; assay type: cell-based, human; details: 6 hours
CASKI = assay: Lysis of tumor cells by peptide-specific CTL; assay type: cell-based, human; details: 6 hours
ST486 = assay: Lysis of tumor cells by peptide-specific CTL; assay type: cell-based, human; details: 6 hours
SV80 = assay: Lysis of tumor cells by peptide-specific CTL; assay type: cell-based, human; details: 6 hours
JY = assay: Lysis of tumor cells by peptide-specific CTL; assay type: cell-based, human; details: 6 hours
BT549 = assay: Lysis of tumor cells by peptide-specific CTL; assay type: cell-based, human; details: 6 hours
MDA.MB435 = assay: Lysis of tumor cells by peptide-specific CTL; assay type: cell-based, human; details: 6 hours
LG-2 = assay: Lysis of tumor cells by peptide-specific CTL; assay type: cell-based, human; details: 6 hours
T98G = assay: Lysis of tumor cells by peptide-specific CTL; assay type: cell-based, human; details: 6 hours
Hep-G2 = assay: Lysis of tumor cells by peptide-specific CTL; assay type: cell-based, human; details: 6 hours
U87G = assay: Lysis of tumor cells by peptide-specific CTL; assay type: cell-based, human; details: 6 hours
MALME-3M = assay: Lysis of tumor cells by peptide-specific CTL; assay type: cell-based, human; details: 6 hours
SAOS.175 = assay: Lysis of tumor cells by peptide-specific CTL; assay type: cell-based, human; details: 6 hours
OVCAR-5 = assay: Lysis of tumor cells by peptide-specific CTL; assay type: cell-based, human; details: 6 hours
SW480 = assay: Lysis of tumor cells by peptide-specific CTL; assay type: cell-based, human; details: 6 hours
U2-OS = assay: Lysis of tumor cells by peptide-specific CTL; assay type: cell-based, human; details: 6 hours
MDA.MB231 = assay: Lysis of tumor cells by peptide-specific CTL; assay type: cell-based, human; details: 6 hours
MCF-7 = assay: Lysis of tumor cells by peptide-specific CTL; assay type: cell-based, human; details: 6 hours
HLA A2.1 = biological target: T1, HLA A2.1 (UniProt P01901+P04439, D140Y/D185E/D98H/E176V/G131W/I119V/I121R/I166T/N151K/N90K/Q86G/Q94H/R138H/R169H); assay: Competition assay: inhibition of influenza matrix peptide M1 (58-66) binding to A2.1, read as inhibition of lysis by an M1-specific CTL clone; parameters: species or system human; details: test peptide 10 μg vs influenza matrix peptide 0.1 μg; T2-A2.1/K^b target cells
T1 construct: expressed in transfected cells; host or cells: T2-A2.1/K^b cells
Description: Briefly, each test peptide (10 μg) was incubated with radiolabeled target cells (T2-A2.1/K^b, 10^6 target cells labeled with […] ^51Cr at 37° for 1.5 hours) in the presence of an influenza virus matrix protein (0.1 μg). The ability of these peptides to inhibit the binding of the influenza matrix protein peptide MI (58-66) to A2.1 was measured by inhibition of lysis by an M1 (58-66) specific, A2.1 restricted CTL clone.

[1] = tumor preincubated 24 hours with 20 ng/ml γ-IFN and 3 ng/ml TNF-α

Question: Which results are given for `CC[C@H](C)[C@H](NC(=O)[C@@H](N)CCCCN)C(=O)N[C@@H](Cc1ccccc1)C(=O)NCC(=O)N[C@@H](CO)C(=O)N[C@@H](CC(C)C)C(=O)N[C@@H](C)C(=O)N[C@@H](Cc1ccccc1)C(=O)N[C@@H](CC(C)C)C(=O)O` [H3]?
Answer: Killing of tumor (lysis) (NCl.H1355; NCl.H1355, lung, A2 +, Her-2 +, no cytokine preincubation): 11%; Killing of tumor (lysis) + CYT (NCl.H1355; NCl.H1355, tumor preincubated 24 hours with 20 ng/ml γ-IFN and 3 ng/ml TNF-α): 38; Killing of tumor (lysis) (SKMEL-5; SKMEL-5, melanoma, A2 +, Her-2 +, no cytokine preincubation): 6%; Killing of tumor (lysis) + CYT (SKMEL-5; SKMEL-5, tumor preincubated 24 hours with 20 ng/ml γ-IFN and 3 ng/ml TNF-α): 38; Killing of tumor (lysis) + CYT (CASKI; [1]): 30; Killing of tumor (lysis) (CASKI; cervix, A2 +, Her-2 +, no cytokine preincubation): 13%; Killing of tumor (lysis) (ST486; ST486, lymphoma, A2 +, Her-2 −, no cytokine preincubation): 1%; Killing of tumor (lysis) + CYT (ST486; ST486, tumor preincubated 24 hours with 20 ng/ml γ-IFN and 3 ng/ml TNF-α): 1; Killing of tumor (lysis) (SV80; SV80, fibroblast, A2 +, Her-2 −, no cytokine preincubation): 4%; Killing of tumor (lysis) + CYT (SV80; SV80, tumor preincubated 24 hours with 20 ng/ml γ-IFN and 3 ng/ml TNF-α): 8; Killing of tumor (lysis) + CYT (JY; [1]): 1; Killing of tumor (lysis) (JY; lymphoma, A2 +, Her-2 −, no cytokine preincubation): 2%; Killing of tumor (lysis) (BT549; BT549, breast, A2 +, Her-2 +, no cytokine preincubation): 2%; Killing of tumor (lysis) + CYT (BT549; BT549, tumor preincubated 24 hours with 20 ng/ml γ-IFN and 3 ng/ml TNF-α): 40; Killing of tumor (lysis) (MDA.MB435; MDA.MB435, breast, A2 −, Her-2 +, no cytokine preincubation): 3%; Killing of tumor (lysis) + CYT (MDA.MB435; MDA.MB435, tumor preincubated 24 hours with 20 ng/ml γ-IFN and 3 ng/ml TNF-α): 2; Killing of tumor (lysis) (LG-2; LG-2, EBV-trans., A2 +, Her-2 −, no cytokine preincubation): 2%; Killing of tumor (lysis) + CYT (LG-2; LG-2, tumor preincubated 24 hours with 20 ng/ml γ-IFN and 3 ng/ml TNF-α): 4; Killing of tumor (lysis) + CYT (T98G; [1]): 99; Killing of tumor (lysis) (T98G; glioblastoma, A2 +, Her-2 +, no cytokine preincubation): 20%; Killing of tumor (lysis) (Hep-G2; Hep-G2, hepatoma, A2 +, Her-2 +, no cytokine preincubation): 4%; Killing of tumor (lysis) + CYT (Hep-G2; Hep-G2, tumor preincubated 24 hours with 20 ng/ml γ-IFN and 3 ng/ml TNF-α): 20; Killing of tumor (lysis) + CYT (U87G; [1]): 1; Killing of tumor (lysis) (U87G; glioblastoma, A2 +, Her-2 −, no cytokine preincubation): 2%; Killing of tumor (lysis) + CYT (MALME-3M; [1]): 57; Killing of tumor (lysis) (MALME-3M; melanoma, A2 +, Her-2 +, no cytokine preincubation): 28%; Killing of tumor (lysis) (SAOS.175; SAOS.175, osteosarcoma, A2 +, Her-2 +, no cytokine preincubation): 27%; Killing of tumor (lysis) + CYT (SAOS.175; SAOS.175, tumor preincubated 24 hours with 20 ng/ml γ-IFN and 3 ng/ml TNF-α): 33; Killing of tumor (lysis) (OVCAR-5; OVCAR-5, ovarian, A2 +, Her-2 +, no cytokine preincubation): 25%; Killing of tumor (lysis) + CYT (OVCAR-5; OVCAR-5, tumor preincubated 24 hours with 20 ng/ml γ-IFN and 3 ng/ml TNF-α): 29; Killing of tumor (lysis) (SW480; SW480, colon, A2 +, Her-2 +, no cytokine preincubation): 6%; Killing of tumor (lysis) + CYT (SW480; SW480, tumor preincubated 24 hours with 20 ng/ml γ-IFN and 3 ng/ml TNF-α): 50; Killing of tumor (lysis) + CYT (U2-OS; [1]): 91; Killing of tumor (lysis) (U2-OS; osteosarcoma, A2 +, Her-2 +, no cytokine preincubation): 32%; Killing of tumor (lysis) (MDA.MB231; MDA.MB231, breast, A2 +, Her-2 +, no cytokine preincubation): 34%; Killing of tumor (lysis) + CYT (MDA.MB231; MDA.MB231, tumor preincubated 24 hours with 20 ng/ml γ-IFN and 3 ng/ml TNF-α): 85; Killing of tumor (lysis) (MCF-7; MCF-7, breast, A2 +, Her-2 +, no cytokine preincubation): 7%; Killing of tumor (lysis) + CYT (MCF-7; MCF-7, tumor preincubated 24 hours with 20 ng/ml γ-IFN and 3 ng/ml TNF-α): 54

Question: How did the “% INHIBITION” value (HLA A2.1) turn out when CLTSTVQLV [H15] was run?
Answer: 33%
